According to paper PMC4559766 (Scientific Reports, 2015):

Tests used:
Du145 cells [1] = assay: Cell cycle of Du145 cells, PI single staining-flow cytometry; type: cell-based, human; conditions: 20 nM, 48 hours
Protocol: (§1) Du145 cells in logarithmic growth phase were seeded into 6-well plates with number of 3 × 10^5 cells per well. […] P16, TNF α and PBS (vehicle of peptide) were used as the controls.

Du145 cells [2] = assay: Apoptosis of Du145 cells, Annexin V-FITC/PI double staining-flow cytometry; type: cell-based, human; conditions: 20 nM, 48 h
Protocol: as §1

TNF α: Recombinant human TNF α purchased from Sino Biological Inc.
G0/G1 phase arrest for Du145 cells (Du145 cells [1]): no apparent ability to induce G0/G1 phase arrest
pro-apoptotic ability on Du145 cells (Du145 cells [2]): markedly weaker than RMP16 and P16
